Source: patent US8470816B2, “Nitrogen-containing heterocyclic compound and use thereof” (Takeda Pharmaceutical Company Limited, priority 2007, dated 2013)

Protein sequences, listed by entry. Tags and fused reporters are not part of them.
UniProt P25103, whole entry: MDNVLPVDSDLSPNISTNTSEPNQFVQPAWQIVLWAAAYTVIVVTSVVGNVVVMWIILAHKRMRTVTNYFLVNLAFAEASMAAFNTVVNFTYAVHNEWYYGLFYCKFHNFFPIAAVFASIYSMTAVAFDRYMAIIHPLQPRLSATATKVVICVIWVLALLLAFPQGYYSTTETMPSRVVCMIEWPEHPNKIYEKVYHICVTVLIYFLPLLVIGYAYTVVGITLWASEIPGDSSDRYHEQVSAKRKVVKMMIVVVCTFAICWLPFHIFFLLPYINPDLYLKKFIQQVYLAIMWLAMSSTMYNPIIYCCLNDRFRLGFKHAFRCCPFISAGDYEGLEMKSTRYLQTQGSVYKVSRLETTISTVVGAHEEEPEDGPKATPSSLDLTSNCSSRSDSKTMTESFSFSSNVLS

Biological target: human NK1 receptor (Homo sapiens (Human), UniProt P25103)
Test: Human NK1 receptor binding assay: radioligand (125I-Bolton-Hunter-SP) binding inhibition using receptor from human lymphoblast cells (IM-9)
Conditions: IM-9 cell receptor, read-out: hNK1 IC50

IC50: 1.5 nM
Structure (SMILES): CC(=O)N1CCC(C(=O)N2C[C@@H](N(C)C(=O)c3cc(C(F)(F)F)cc(C(F)(F)F)c3)[C@H](c3ccc(Cl)c(Cl)c3)C2)CC1 (racemic) [Example 82, N-[(3S*,4R*)-1-[(1-acetylpiperidin-4-yl)carbonyl]-4-(3,4-dichlorophenyl)pyrrolidin-3-yl]-N-methyl-3,5-bis(trifluoromethyl)benzamide]
